Experiment: physchem

With `Cc1nc2n(c(=O)c1CCN1CCC(c3noc4cc(F)ccc34)CC1)CCCC2` [RISPERIDONE] the pKa was 8.7.
